Legend:
[1] = biological target: T1, IL-17A (Homo sapiens, UniProt Q16552); assay: Surface plasmon resonance (BIAcore T200) binding of peptides to captured Avi-tagged IL-17A; details: 8°C, 50 μl/min, 10 mM HEPES pH 7.5, 150 mM NaCl, 0.005% P20, 3% DMSO; global fit, 1:1 binding model
T1 construct: His-tag; Flag-tag; made in house; host or cells: Sf9 insect cells (baculovirus)

Protein sequences, listed by entry. Tags and fused reporters are not part of them. Residues count along the entry.
UniProt Q16552, 24-155: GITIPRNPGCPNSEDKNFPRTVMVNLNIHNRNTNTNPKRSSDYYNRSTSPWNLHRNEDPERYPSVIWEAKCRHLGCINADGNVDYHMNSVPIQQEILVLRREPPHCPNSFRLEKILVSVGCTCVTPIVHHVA

[2] = tested on: human IL-17A; assay: Cell-based neutralization assay: IL-17A-induced CXCL1/GROα in HT-29 cells; details: highest concentration tested (dose range 0.05 nM to 50,000 nM), ~48 h
[3] = biological target: human IL-17A (#317-ILB; R&D Systems) (human, UniProt Q16552 24-155, biotin (EZ Link NHS-Biotin), in the ELISA); assay: cell-based or functional assay
[4] = biological target: Avi-tagged IL-17A (IL-17A molecule with a single biotin tag per dimer) (human) (UniProt Q16552); assay: AlphaScreen or HTRF; AlphaLISA competition: 2 nM IL-17RA-flag and 2 nM Avi-tagged IL-17A-His with peptide dilutions, 2 h at room temperature; streptavidin donor and anti-FLAG acceptor beads; 20 mM HEPES, 150 mM NaCl, 0.05% Tween-20, 0.1% HSA, pH 7, 1% DMSO; relative IC50, four parameter fit
[5] = biological target: Avi-tagged IL-17A (IL-17A molecule with a single biotin tag per dimer) (human) (UniProt Q16552); assay: SPR; Avi-tagged IL-17A (6000–9000 RU) captured on a streptavidin chip; peptides flowed at 50 μl/min; 8°C; 10 mM HEPES pH 7.5, 150 mM NaCl, 0.005% P20, 3% DMSO; global fit, 1:1 binding model

Row | Molecule | SPR ka1 [1] [M⁻¹ s⁻¹] | SPR kd1 [1] [s⁻¹] | IC50 [4] [nM] | Kd [5] [nM] | also measured
1 | CC[C@H](C)[C@H](NC(=O)[C@@H]1CSSC[C@H](N)C(=O)N[C@@H](CC(C)C)C(=O)N[C@@H](CC(=O)O)C(=O)N[C@@H](CC(C)C)C(=O)N[C@@H](CCC(N)=O)C(=O)N[C@@H](Cc2ccc(O)cc2)C(=O)N[C@@H](CC(=O)O)C(=O)N2CCC[C@H]2C(=O)N[C@@H](Cc2c[nH]c3ccccc23)C(=O)NCC(=O)N[C@@H](C)C(=O)N[C@@H](CC(C)C)C(=O)N[C@@H](Cc2c[nH]cn2)C(=O)N1)C(=O)O [18–906] | 6250 | 0.016 | – | – | –
2 | CC[C@H](C)[C@H](NC(=O)[C@@H](N)CC(=O)O)C(=O)N[C@@H](CO)C(=O)N[C@@H](C)C(=O)N[C@H](C(=O)N[C@H]1CSSC[C@@H](C(=O)N[C@@H](Cc2c[nH]cn2)C(=O)O)NC(=O)[C@H](CCC(=O)O)NC(=O)[C@@H]2CCCN2C(=O)[C@H](CC(=O)O)NC(=O)[C@H](Cc2ccccc2)NC(=O)[C@@H]2CCCN2C(=O)[C@H](Cc2ccccc2)NC(=O)[C@H](C)NC(=O)[C@H](Cc2c[nH]c3ccccc23)NC1=O)C(C)C [585–869] | 64500 | 0.016 | – | – | –
3 | CSCC[C@H](NC(=O)[C@H](CC(=O)O)NC(=O)[C@H](C)NC(=O)[C@H](CC(=O)O)NC(=O)[C@H](C)N)C(=O)N[C@H]1CSSC[C@@H](C(=O)N[C@@H](Cc2c[nH]cn2)C(=O)O)NC(=O)[C@H](Cc2c[nH]c3ccccc23)NC(=O)[C@@H]2CCCN2C(=O)[C@H](CO)NC(=O)[C@H]([C@@H](C)O)NC(=O)[C@@H]2CCCN2C(=O)[C@H](Cc2ccccc2)NC(=O)[C@H](Cc2ccccc2)NC(=O)[C@H](Cc2c[nH]c3ccccc23)NC1=O [585–865] | 134000 | 0.1227 | – | – | –
4 | CC(C)C[C@@H]1NC(=O)[C@H](Cc2ccc(O)cc2)NC(=O)[C@@H]2CCCN2C(=O)[C@H](Cc2ccccc2)NC(=O)[C@H](C)NC(=O)[C@H](Cc2c[nH]c3ccccc23)NC(=O)[C@@H](NC(=O)[C@@H](NC(=O)[C@H](C)NC(=O)[C@H](CO)NC(=O)[C@H](CO)NC(=O)[C@@H](N)CC(=O)O)C(C)C)CSSC[C@@H](C(=O)N[C@@H](Cc2c[nH]cn2)C(=O)O)NC(=O)[C@H](CCC(=O)O)NC(=O)[C@@H]2CCCN2C1=O [585–876] | 93300 | 0.0162 | – | – | –
5 | CC[C@H](C)[C@H](NC(=O)[C@@H]1CSSC[C@H](N)C(=O)N[C@@H](CC(C)C)C(=O)N[C@@H](CC(=O)O)C(=O)N[C@@H](CC(C)C)C(=O)N[C@@H](C(C)C)C(=O)N[C@@H](Cc2ccc(O)cc2)C(=O)N[C@@H](CC(=O)O)C(=O)N2CCC[C@H]2C(=O)N[C@@H](Cc2c[nH]c3ccccc23)C(=O)NCC(=O)N[C@@H](C)C(=O)N[C@@H](CC(C)C)C(=O)N[C@@H](Cc2c[nH]cn2)C(=O)N1)C(=O)O [18–921] | 5510 | 0.0223 | – | – | –
6 | CSCC[C@@H]1NC(=O)[C@H](CC(=O)O)NC(=O)[C@H](Cc2ccc(O)cc2)NC(=O)[C@H](CCC(=O)O)NC(=O)[C@H](CC(C)C)NC(=O)[C@H](C(C)C)NC(=O)[C@H](Cc2c[nH]c3ccccc23)NC(=O)[C@@H](N)CSSC[C@@H](C(=O)N[C@@H](CCCNC(=N)N)C(=O)O)NC(=O)[C@H](Cc2c[nH]cn2)NC(=O)[C@H](CC(C)C)NC(=O)[C@H](Cc2ccccc2)NC(=O)CNC(=O)[C@H](Cc2ccccc2)NC1=O [18–972] | 63100 | 0.00457 | – | – | –
7 | CSCC[C@@H]1NC(=O)[C@H](CC(=O)O)NC(=O)[C@H](Cc2ccc(O)cc2)NC(=O)[C@H](CCC(=O)O)NC(=O)[C@H](CC(C)C)NC(=O)[C@H](CCCNC(=N)N)NC(=O)[C@@H]2CCCN2C(=O)[C@@H](NC(=O)[C@H](CCC(=O)O)NC(=O)[C@H](Cc2ccc(O)cc2)NC(=O)[C@H](C)N)CSSC[C@@H](C(=O)N[C@@H](CC(C)C)C(=O)N2CCC[C@H]2C(=O)N[C@@H](CO)C(=O)O)NC(=O)[C@H](Cc2c[nH]cn2)NC(=O)[C@H](CC(C)C)NC(=O)[C@H](C)NC(=O)CNC(=O)[C@H](Cc2ccccc2)NC1=O [18–1] | – | – | – | – | inhibition of human IL-17A-induced CXCL1 expression (in words) [2]: minimal inhibition
8 | CSCC[C@@H]1NC(=O)[C@H](CC(=O)O)NC(=O)[C@H](Cc2ccc(O)cc2)NC(=O)[C@H](CCC(=O)O)NC(=O)[C@H](CC(C)C)NC(=O)[C@H](C)NC(=O)[C@H](Cc2c[nH]c3ccccc23)NC(=O)[C@@H](N)CSSC[C@@H](C(=O)N[C@@H](CCCNC(=N)N)C(=O)O)NC(=O)[C@H](Cc2c[nH]cn2)NC(=O)[C@H](CC(C)C)NC(=O)[C@H](Cc2ccc(O)cc2)NC(=O)CNC(=O)[C@H](Cc2ccccc2)NC1=O [18–964] | 31700 | 0.00922 | – | – | –
9 | CC[C@H](C)[C@H](NC(=O)[C@@H]1CSSC[C@H](N)C(=O)N[C@@H](Cc2ccccc2)C(=O)N[C@@H](CC(=O)O)C(=O)N[C@@H](CC(C)C)C(=O)N[C@@H](CCC(N)=O)C(=O)N[C@@H](Cc2ccc(O)cc2)C(=O)N[C@@H](CC(=O)O)C(=O)N2CCC[C@H]2C(=O)N[C@@H](Cc2c[nH]c3ccccc23)C(=O)NCC(=O)N[C@@H](C)C(=O)N[C@@H](CC(C)C)C(=O)N[C@@H](Cc2c[nH]cn2)C(=O)N1)C(=O)O [18–903] | 7570 | 0.0183 | – | – | –
10 | DLSAVCWAFPWDPECH [585–870] | – | – | 16 | – | inhibition of human IL-17A-induced CXCL1 (GROα) production by HT-29 cells (IL-17A with its receptor on the cells); percent inhibition at 10 μM peptide [3]: 76.6%
11 | DSSAVCWAFPYLPECH [585–876] | – | – | 48 | 170 | –
12 | DISAVCWAFPFDPECH [585–869] | – | – | 39 | 250 | –
13 | CPRLEYDMFGALHCL [18–927] | – | – | 5300 | 4060 | –
14 | CLDLQYDPWGALHCI [18–906] | – | – | – | 2560 | –
15 | CFDLQYDPWGALHCI [18–903] | – | – | 1500 | 2410 | –
16 | DSSAVCWAFPHHPLCHMKAT [585–1] | – | – | 4980 | – | inhibition of human IL-17A-induced CXCL1 (GROα) production by HT-29 cells (IL-17A with its receptor on the cells); percent inhibition at 10 μM peptide [3]: 42.5%
17 | CLDLVYDPWGALHCI [18–921] | – | – | 3100 | 4040 | –
18 | CWALEYDMFGYLHCR [18–964] | – | – | 720 | 290 | –
19 | CWVLEYDMFGFLHCR [18–972] | – | – | – | 72 | –
20 | ADADMCWFFPTSPWCH [585–865] | – | – | 670 | 920 | –
21 | CWVLEYDMFGALHCR (disulfide bond between Cys1 and Cys14) [18–902] | – | – | – | – | inhibition of human IL-17A-induced CXCL1 (GROα) production by HT-29 cells (IL-17A with its receptor on the cells); percent inhibition at 10 μM peptide [3]: 38.4%

Source: publication PMC5766103 (PLoS ONE, 2018)
